This note sets out measurements from patent US12240855B2, “Pyrrolopyrazole derivative” (DAIICHI SANKYO COMPANY, LIMITED, priority 2019, dated 2025).

Each structure is given as a SMILES string.

One may read the GI50 as the concentration that inhibits growth by half.

One experiment deals with HCT116 cells. The experiment can be described thus: cells. The conditions noted are these: Homo sapiens, HCT-116, 72 h, read-out: Test Example 3 HCT116 GI50.
Experiment [1] concerns PTDSS2 gene-disrupted (PTDSS2-KO) HCT116 cells. As to the kind of experiment: cells. To be noted: Homo sapiens, HCT-116, 72 h, read-out: Test Example 3 PTDSS2-KO HCT116 GI50.

As to `CC(F)(F)CN1C(=O)c2[nH]nc(-c3cccc4[nH]c(=O)oc34)c2C1c1ccc(Oc2ccc(OC(F)(F)F)c(F)c2)cc1` (single isomer, unassigned) [Example 35, 7-{5-(2,2-Difluoropropyl)-4-{4-[3-fluoro-4-(trifluoromethoxy)phenoxy]phenyl}-6-oxo-1,4,5,6-tetrahydropyrrolo[3,4-c]pyrazol-3-yl]-1,3-benzoxazol-2(3H)-one (enantiomer)], the GI50 was found to be 7400 nM in the experiment with HCT116 cells and 38 nM in experiment [1].

With `CC(F)(F)CN1C(=O)c2[nH]nc(-c3cccc(NC(N)=O)c3)c2C1c1ccc(Cl)cc1` (stereo not shown) [Example 93, N-{3-[4-(4-Chlorophenyl)-5-(2,2-difluoropropyl)-6-oxo-1,4,5,6-tetrahydropyrrolo[3,4-c]pyrazol-3-yl]phenyl}urea], the GI50 in experiment [1] amounted to 7200 nM.

Regarding `CC(F)(F)CN1C(=O)c2[nH]nc(-c3cccc4[nH]c(=O)oc34)c2C1c1ccc(Oc2ccc(OC(F)(F)F)cc2)cc1` (single isomer, unassigned; (-)) [Example 30, (−)-7-[5-(2,2-difluoropropyl)-6-oxo-4-{4-[4-(trifluoromethoxy)phenoxy]phenyl}-1,4,5,6,-tetrahydropyrrolo[3,4-c]pyrazol-3-yl]-1,3-benzoxazol-2-(3H)-one], the GI50 in the experiment on HCT116 cells was found to be 6300 nM; in experiment [1] it was 41 nM.

As to `CC(F)(F)CN1C(=O)c2[nH]nc(-c3cccc4[nH]c(=O)oc34)c2C1c1cnc(Oc2ccc(F)cc2)cn1` (stereo not shown) [Example 74, 7-{5-(2,2-Difluoropropyl)-4-[5-(4-fluorophenoxy)pyrazine-2-yl]-6-oxo-1,4,5,6-tetra hydropyrrolo[3,4-c]pyrazol-3-yl}-1,3-benzoxazol-2(3H)-one], the concentration for 50% growth inhibition (GI50) stood at 7700 nM with HCT116 cells and 890 nM in experiment [1].

For the compound `CC(F)(F)CN1C(=O)c2[nH]nc(-c3cc(F)cc4[nH]c(=O)oc34)c2C1c1ccc(Oc2ccc(Cl)cc2)cc1` (single isomer, unassigned) [Example 41, 7-{4-[4-(4-Chlorophenoxy)phenyl]-5-(2,2-difluoropropyl)-6-oxo-1,4,5,6-tetrahydropyrrolo[3,4-c]pyrazol-3-yl}-5-fluoro-1,3-benzoxazol-2(3H)-one (enantiomer)], the GI50 with HCT116 cells came out at 17000 nM; in experiment [1] it was 200 nM.

Regarding `CC(F)(F)CN1C(=O)c2[nH]nc(-c3cccc4[nH]c(=O)oc34)c2C1c1ccc(Cl)cc1Oc1ccccc1` (stereo not shown) [Example 28, 7-[4-(4-Chloro-2-phenoxyphenyl)-5-(2,2-difluoropropyl)-6-oxo-1,4,5,6-tetrahydropyrrolo[3,4-c]pyrazol-3-yl]-1,3-benzoxazol-2(3H)-one], the results for the GI50 (in the experiment on HCT116 cells; in experiment [1]) were 11000 nM and 870 nM, respectively.

On to `CC(F)(F)CN1C(=O)c2[nH]nc(-c3cccc4[nH]c(=O)oc34)c2C1c1ccc(Oc2cc(Cl)cc(OC(F)(F)F)c2)cc1` (single isomer, unassigned; (-)) [Example 34, (−)-7-[4-{4-[3-Chloro-5-(trifluoromethoxy)phenoxy]phenyl}-5-(2,2-difluoropropyl)-6-oxo-1,4,5,6-tetrahydropyrrolo[3,4-c]pyrazol-3-yl]-1,3-benzoxazol-2(3H)-one], for which the GI50 with HCT116 cells came out at 7900 nM; in experiment [1], 20 nM.

Regarding `O=C1c2[nH]nc(-c3cccc4[nH]c(=O)oc34)c2C(c2cc(Oc3ccccc3)ccc2F)N1CC(F)(F)F` (stereo not shown) [Example 10, 7-[4-(2-Fluoro-5-phenoxy]phenyl)-6-oxo-5-(2,2,2-trifluoroethyl)-1,4,5,6-tetrahydropyrrolo[3,4-c]pyrazol-3-yl-1,3-benzoxazol-2(3H)-one], the GI50 with HCT116 cells was 20000 nM; in experiment [1], 55 nM.

For the compound `CC(F)(F)CN1C(=O)c2[nH]nc(-c3cccc4[nH]c(=O)oc34)c2C1c1ccc(CN2CCC(F)(F)CC2)cc1` (single isomer, unassigned) [Example 83, 7-[4-{4-[(4,4-Difluoropiperidin-1-yl)methyl]phenyl}-5-(2,2-difluoropropyl)-6-oxo-1,4,5,6-tetrahydropyrrolo[3,4-c]pyrazol-3-yl]-1,3-benzoxazol-2(3H)-one (enantiomer)], the GI50 in experiment [1] is 260 nM.

For `CC(F)(F)CN1C(=O)c2[nH]nc(-c3cccc4[nH]c(=O)oc34)c2C1c1ccc(Oc2ccc(OC(F)(F)F)c(Cl)c2)cc1` (single isomer, unassigned; (-)) [Example 31, (−)-7-[4-{4-[3-chloro-4-(trifluoromethoxy)phenoxy]phenyl}-5-(2,2-difluoropropyl)-6-oxo-1,4,5,6,-tetrahydropyrrolo[3,4-c]pyrazol-3-yl]-1,3-benzoxazol-2-(3H)-one], the GI50 in the experiment with HCT116 cells was 7900 nM; in experiment [1], 17 nM.

Regarding `CC(F)(F)CN1C(=O)c2[nH]nc(-c3cccc4[nH]c(=O)oc34)c2C1c1ccc(Oc2ccc(S(=O)(=O)C(F)(F)F)cc2)cc1` (single isomer, unassigned) [Example 51, 7-[5-(2,2-Difluoropropyl)-6-oxo-4-{4[4-(trifluoromethanesulfonyl)phenoxy]phenyl}-1,4,5,6-tetrahydropyrrolo[3,4-c]pyrazol-3-yl]-1,3-benzoxazol-2(3H)-one (enantiomer)], the values for the GI50 (in the experiment on HCT116 cells; in experiment [1]) were 5400 nM and 140 nM, respectively.

In the case of `Cc1cc(Oc2ccc(C3c4c(-c5cccc6[nH]c(=O)oc56)n[nH]c4C(=O)N3CC(C)(F)F)cc2)cc(C(F)(F)F)c1` (single isomer, unassigned) [Example 45, 7-[5-(2,2-Difluoropropyl)-4-{4-[3-methyl-5-(trifluoromethyl)phenoxy]phenyl}-6-oxo-1,4,5,6-tetrahydropyrrolo[3,4-c]pyrazol-3-yl]-1,3-benzoxazol-2(3H)-one (enantiomer)], the GI50 with HCT116 cells came out at 8400 nM; in experiment [1] it was 16 nM.

With `Cc1cc(C2c3c(-c4cccc5[nH]c(=O)oc45)n[nH]c3C(=O)N2CC(C)(F)F)ccc1OCCCC(F)(F)F` (single isomer, unassigned) [Example 25, 7-{(5-(2,2-Difluoropropyl)-4-[3-methyl-4-(4,4,4-trifluorobutoxy)phenyl]-6-oxo-1,4,5,6-tetrahydropyrrolo[3,4-c]pyrazol-3-yl}-1,3-benzoxazol-2(3H)-one (enantiomer)], the GI50 with HCT116 cells is 8900 nM; in experiment [1] it was 25 nM.

As for `CC(F)(F)CN1C(=O)c2[nH]nc(-c3cccc4[nH]c(=O)oc34)c2C1c1ccc(Oc2ccc(OC(F)(F)F)cc2)cc1Cl` (single isomer, unassigned) [Example 69, 7-[4-{2-Chloro-4-[4-(trifluoromethoxy)phenoxy]phenyl}-5-(2,2-difluoropropyl)-6-oxo-1,4,5,6-tetrahydropyrrolo[3,4-c]pyrazol-3-yl]-1,3-benzoxazol-2(3H)-one (enantiomer)], the GI50 with HCT116 cells came to 8100 nM; in experiment [1], 66 nM.

As for `O=C1c2[nH]nc(-c3cc(Oc4ccccc4)cc4[nH]c(=O)oc34)c2C(c2ccc(F)cc2)N1CC(F)(F)F` (stereo not shown) [Example 15, 7-[4-(4-Fluorophenyl)-6-oxo-5-(2,2,2-trifluoroethyl)-1,4,5,6-tetrahydropyrrolo[3,4-c]pyrazol-3-yl]-5-phenoxy-1,3-benzoxazol-2(3H)-one], the 50% growth inhibitory concentration (GI50) in experiment [1] worked out at 14000 nM.

Regarding `CC(F)(F)CN1C(=O)c2[nH]nc(-c3cccc4[nH]c(=O)oc34)c2C1c1ccnc(Oc2ccccc2)c1` (stereo not shown) [Example 72, 7-[5-(2,2-Difluoropropyl)-6-oxo-4-(2-phenoxypyridin-4-yl)-1,4,5,6-tetrahydropyrrolo[3,4-c]pyrazol-3-yl]-1,3-benzoxazol-2(3H)-one], the GI50 in experiment [1] came to 280 nM.

In the case of `CC(F)(F)CN1C(=O)c2[nH]nc(-c3cccc4[nH]c(=O)oc34)c2C1c1ccc(Oc2ccc(Cl)cc2)cn1` (stereo not shown) [Example 77, 7-{4-[5-(4-Chlorophenoxy)pyridin-2-yl]-5-(2,2-difluoropropyl)-6-oxo-1,4,5,6-tetrahydropyrrolo[3,4-c]pyrazol-3-yl]-1,3-benzoxazol-2(3H)-one], the GI50 in experiment [1] stood at 1000 nM.

Regarding `CC(F)(F)CN1C(=O)c2[nH]nc(-c3cccc4[nH]c(=O)oc34)c2C1c1cnc(C(F)(F)F)s1` (single isomer, unassigned) [Example 24, 7-{5-(2,2-Difluoropropyl)-6-oxo-4-[2-(trifluoromethyl)-1,3-thiazol-5-yl]-1,4,5,6-tetrahydropyrrolo[3,4-c]pyrazol-3-yl}-1,3-benzoxazol-2(3H)-one (enantiomer)], in experiment [1], the GI50 came out at 2500 nM.

`O=C1c2[nH]nc(-c3cccc4[nH]c(=O)oc34)c2C(c2cccc(Oc3ccccc3)c2)N1Cc1ncco1` (stereo not shown) [Example 12, 7-{5-[(1,3-Oxazol-2-yl)methyl]-6-oxo-4-(3-phenoxyphenyl)-1,4,5,6-tetrahydropyrrolo[3,4-c]pyrazol-3-yl}-1,3-benzoxazol-2(3H)-one]: the GI50 in experiment [1] came to 660 nM.

For `CC(F)(F)CN1C(=O)c2[nH]nc(-c3cccc4[nH]c(=O)oc34)c2C1c1ccc(Oc2cc(C(F)(F)F)cc(C(F)(F)F)c2)cc1F` (single isomer, unassigned) [Example 66, 7-[4-{4-[3,5-Bis(trifluoromethyl)phenoxy]-2-fluorophenyl}-5-(2,2-difluoropropyl)-6-oxo-1,4,5,6-tetrahydropyrrolo[3,4-c]pyrazol-3-yl]-1,3-benzoxazol-2(3H)-one (enantiomer)], in experiment [1], the GI50 was 16 nM.

In the case of `CC(F)(F)CN1C(=O)c2[nH]nc(-c3cccc4[nH]c(=O)oc34)c2C1c1cc(Oc2ccc(F)cc2)ccn1` (stereo not shown) [Example 78, 7-{5-(2,2-Difluoropropyl)-4-[4-(4-fluorophenoxy)pyridin-2-yl]-6-oxo-1,4,5,6-tetrahydropyrrolo[3,4-c]pyrazol-3-yl}-1,3-benzoxazol-2(3H)-one], the 50% growth inhibitory concentration (GI50) in experiment [1] came to 610 nM.

As for `Cc1nc(C2c3c(-c4cccc5[nH]c(=O)oc45)n[nH]c3C(=O)N2CC(C)(F)F)ccc1F` (single isomer, unassigned) [Example 23, 7-[5-(2,2-Difluoropropyl)-4-(5-fluoro-6-methylpyridin-2-yl)-6-oxo-1,4,5,6-tetrahydropyrrolo[3,4-c]pyrazol-3-yl]-1,3-benzoxazol-2(3H)-one (enantiomer)], the GI50 in experiment [1] stood at 2100 nM.
